We go through one substance from patent US20210322545A1 (priority 2016, published 2021).

The assay relates to glioma cells. The class given is cell-based.

On to TNF-α, for which the “surface expression of PD-L1 and MHC I markers” value is “not”.
